Results from PubChem BioAssay AID1825 (The Scripps Research Institute Molecular Screening Center, 2009).
This is a selection; strong and weak results do not stand in their true shares. Activity calls are given as the source filed them. Rule as the data show it: active = inhibition above about 22%; inactive = the rest.

assay: cytotoxicity in IEC-6 intestinal epithelial cells, primary screen, cytotoxicity control for KLF5 inhibitor project, cell-based, luminescence (AID 1825); settings: IEC-6 cytotoxicity, luminescence viability; at 5 µM; active compounds read high;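 also: 0% = plate median of test compound wells and 100% = cytotoxic reference compound wells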

Compound | inhibition
O=P(Nc1nccs1)(c1ccccc1)c1nc2ccccc2s1 (stereo unspecified) | inactive: -5.6%
O=C(O)COc1ccc([As](=O)(O)O)cc1[N+](=O)[O-] | inactive: 2.4%
Nc1ccccc1[As](=O)(O)c1ccccc1 | inactive: 0.6%
CC(C)c1ccc(OP(=O)(Nc2ccccn2)Oc2ccccc2F)cc1 (stereo unspecified) | inactive: 0.8%
ClCCSc1nnc(-c2cccnc2)o1 | inactive: -0.3%
CC(C)NC(=O)NP(=O)(Oc1ccccc1)Oc1ccccc1 | inactive: -3.1%
CCN(CC)C(=S)SC(NC=O)C(Cl)(Cl)Cl (stereo unspecified) | inactive: 4.4%
O=[N+]([O-])c1cc([N+](=O)[O-])c(-c2ccn[nH]2)s1 | inactive: -1%
O=[As](O)(c1ccc(O)cc1)c1ccccc1O | inactive: -0.9%
C[As](=O)(O)c1cccc(C(=O)O)c1 | inactive: 0.25%
Cc1ccc2nc3c(c(C)c2c1)CC(C(Cl)Cl)S3 (stereo unspecified) | inactive: -1.8%
Cc1ccc(OP(=O)(Nc2ccc([N+](=O)[O-])cn2)Oc2ccc(C)cc2)cc1 | inactive: -0.6%
COc1ccc(N/C(=N/P(=O)(N2CCOCC2)N2CCOCC2)N2CCOCC2)cc1 | inactive: -3.3%
O=C(OC1CN2CCC1CC2)C12CC3CC(CC(C3)C1)C2 (stereo unspecified) | inactive: 3.8%
Cc1cc(=O)[nH]c(N[N+](=O)[O-])n1 | inactive: -7%
Cc1c2c(nc3ccccc13)SC(C(Cl)Cl)C2 (stereo unspecified) | inactive: -15%

Compound | inhibition
COc1ccc2nc(NP(=O)(c3ccccc3)c3ccccc3)sc2c1 | inactive: 2.8%
COc1cc(I)ccc1[As](=O)(O)O | inactive: -2.4%
CCOC(=O)c1ccc(NC(=O)C(C)(CCl)SC)cc1 (stereo unspecified) | inactive: -8.8%
O=C(OC1CN2CCC1CC2)c1cccc([N+](=O)[O-])c1 (stereo unspecified) | inactive: 2.7%
CCC(C)N(CC(C)C)C(=S)SC(NC(C)=O)C(Cl)(Cl)Cl (stereo unspecified) | inactive: 0.8%
COP1(=S)c2c(C)nn(CCC#N)c2N=C(c2ccc(F)cc2)N1C (stereo unspecified) | inactive: -0.4%
O=C(COc1ccccc1)OC1CN2CCC1CC2 (stereo unspecified) | inactive: 1.8%
O=C(Nc1ccncc1[N+](=O)[O-])c1ccc([N+](=O)[O-])cc1[N+](=O)[O-] | inactive: -3.3%
CCOC(=O)Nc1cccc([As](=O)(O)O)c1 | inactive: 10.8%
O=[N+]([O-])c1ccc(Nc2ccc(Oc3ccc([N+](=O)[O-])cc3[N+](=O)[O-])cc2)c([N+](=O)[O-])c1 | inactive: -6.05%
Cc1cc(SC(NC=O)C(Cl)(Cl)Cl)ncn1 (stereo unspecified) | inactive: 1.1%
O=P(Nc1ccccn1)(c1cccc2ccccc12)c1cccc2ccccc12 | inactive: -8.5%
CCOC(=O)Nc1ccc([As](=O)(O)O)c(O)c1 | inactive: 4.7%
CCCCOc1ccc(C(=O)NCC2(N3CCCCC3)CCCCC2)cc1OC | inactive: 0.2%
Cc1cc(SC(NC(=O)c2ccccc2)C(Cl)(Cl)Cl)nc(C(C)C)n1 (stereo unspecified) | inactive: -0.3%
